Source: BindingDB's records for US10807989

The chains behind the UniProt entries cited, without tags or fusion partners.
UniProt P35372, whole entry: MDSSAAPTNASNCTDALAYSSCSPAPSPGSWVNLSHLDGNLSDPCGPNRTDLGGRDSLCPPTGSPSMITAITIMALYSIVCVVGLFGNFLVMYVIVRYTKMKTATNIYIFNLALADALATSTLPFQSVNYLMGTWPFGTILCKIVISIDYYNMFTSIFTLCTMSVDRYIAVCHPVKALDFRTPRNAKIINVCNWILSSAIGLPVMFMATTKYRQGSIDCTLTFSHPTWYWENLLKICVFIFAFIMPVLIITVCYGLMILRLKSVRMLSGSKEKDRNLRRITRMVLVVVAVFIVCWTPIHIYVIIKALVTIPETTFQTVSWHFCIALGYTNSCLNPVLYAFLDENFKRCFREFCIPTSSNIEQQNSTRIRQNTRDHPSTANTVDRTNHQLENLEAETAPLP

Target: Mu-type opioid receptor (Homo sapiens, UniProt P35372)
Experiment: ASSAY_NAME: Human Mu-Opioid Peptide (hMOP) Receptor Binding Assay DESCRIPTION: The hMOP receptor binding assay was performed as homogeneous SPA-assay (scintillation proximity assay) using the assay buffer 50 mM TRIS-HCl (pH 7.4) supplemented with […] bovine serum albumin (Sigma-Aldrich Co., St. Louis, Mo.). The final assay volume (250 μl/well) included 1 nM of [N-allyl-2,3-3H]naloxone

`CN(C)[C@]1(c2ccccc2)CC[C@]2(CC1)CN(CC(=O)N1C[C@@H](O)[C@@H](O)C1)C(=O)N2CC1CCC1` showed a Ki of 29 nM.
